Laboratory results: US7531651B2, “Benzenesulphonate salt of a morpholine urea derivative for use as a CCR-3 antagonist in the treatment of inflammatory conditions” (Glaxo Group Limited, priority 2002, dated 2009)

Assay: Solid form storage stability tests (temperature/humidity/light)
Conditions: 25 days

Structure (SMILES): NC(=O)c1ccc(CNC(=O)NC[C@H]2CN(Cc3ccc(Cl)c(Cl)c3)CCO2)cc1.O.O.O=S(=O)(O)c1ccccc1 [compound of the invention, 4-({[({[(2S)-4-(3,4-dichlorobenzyl)morpholin-2-yl]methyl}amino)carbonyl]amino}methyl)benzamide benzenesulfonate dihydrate]
- degradation on storage (solid form) (40° C./20% relative humidity): no significant degradation
- degradation on storage (solid form) (40° C./75% relative humidity): no significant degradation
